# Apparent affinities of Ab-91 variants for a coronavirus HR2 peptide

Data: MIT Lincoln Laboratory AlphaSeq set, Engelhart et al. 2022, doi:10.1038/s41597-022-01779-4, as distributed in FLAb.

The target is the same throughout: PDVDLGDISGINAS, from the HR2 region of SARS-CoV-2 spike.

Parent scFv Ab-91: VL joined to VH by a 15-residue (Gly4Ser)3 linker. Changes lie in the heavy chain CDRs alone.
VL: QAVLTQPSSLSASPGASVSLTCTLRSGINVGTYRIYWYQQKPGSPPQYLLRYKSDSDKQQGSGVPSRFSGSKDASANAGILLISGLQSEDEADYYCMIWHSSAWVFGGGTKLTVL
VH: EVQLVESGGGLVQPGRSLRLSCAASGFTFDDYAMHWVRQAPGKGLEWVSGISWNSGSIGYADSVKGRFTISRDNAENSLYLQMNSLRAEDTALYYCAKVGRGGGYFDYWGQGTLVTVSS

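The parent was found by panning a naive human phage display library on the peptide. In library AAYL51, one, two or three CDR residues were substituted; doubles and triples were drawn at random. Affinity was read by AlphaSeq, a pooled yeast mating assay with surface-displayed partners. Binding brings cells together so that they mate, and sequencing counts the barcode pairs among the diploids. Scores were corrected for input abundance and mapped to Kd with protein pairs of known affinity run in the same pool. The assay was run in three technical replicates.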

Changes read parent residue, position, new residue, counted from the first residue of the VH shown. This list gathers variants with a substitution at G104 (VH, numbered from residue 1). Each Kd is an estimate from the mating assay, the geometric mean of the replicates in which the pair was seen; lower is stronger. "no signal" means that the variant was in the library but no mating with the target was seen in any replicate; the authors take this as a sign of poor binding, and no number exists. For reference, the parent read 72 nM as the reference entry and 7.5 nM as a member of this library.

Variant D31A/A33R/G104H gave 46 µM (1 of 3 replicates).
Variant D62F/V99T/G104C gave 6.0 µM (2 of 3 replicates).
Variant F29G/S55H/G104A gave 17 µM (1 of 3 replicates).
Variant T28F/M34C/G104H gave 48 µM (2 of 3 replicates).
Variant S55T/I58F/G104V gave 80 µM (1 of 3 replicates).
Variant I51G/N54R/G104R gave 12 µM (1 of 3 replicates).
Variant I58S/G104A/Y108G gave no signal (0 of 3 replicates).
Variant I51V/V64Q/G104W gave 240 µM (1 of 3 replicates).
Variant G50D/W53K/G104T gave 34 µM (1 of 3 replicates).
Variant G104R gave 9.7 µM (1 of 3 replicates).
Variant D30A/G103H/G104A gave no signal (0 of 3 replicates).
Variant A33I/I51K/G104L gave 9.2 µM (1 of 3 replicates).
Variant H35K/G104D/F106G gave 14 µM (2 of 3 replicates).
Variant S57D/G104V/F106N gave 7.1 nM (3 of 3 replicates).
Variant T28Q/G104N/Y105M gave 1.5 µM (1 of 3 replicates).
Variant G26Y/G100R/G104V gave 40 µM (1 of 3 replicates).
Variant S52P/G104Q/F106V gave no signal (0 of 3 replicates).
Variant S63R/G104V gave no signal (0 of 3 replicates).
Variant I58D/V64D/G104A gave 160 µM (1 of 3 replicates).
Variant D30E/G102M/G104M gave 180 nM (3 of 3 replicates).
Variant A33F/G59V/G104T gave 12 µM (1 of 3 replicates).
Variant D31P/G56Y/G104S gave 57 µM (2 of 3 replicates).
Variant S55R/G104M/F106A gave 220 µM (1 of 3 replicates).
Variant M34R/K65S/G104V gave no signal (0 of 3 replicates).
Variant F29T/D31Q/G104S gave 7.7 µM (1 of 3 replicates).
Variant I58A/G104M gave 19 µM (2 of 3 replicates).
Variant S55W/D62V/G104N gave no signal (0 of 3 replicates).
Variant G104V/Y105K/F106Q gave 31 µM (1 of 3 replicates).
Variant G50S/S63W/G104K gave 80 µM (1 of 3 replicates).
Variant V64P/G102T/G104L gave no signal (0 of 3 replicates).
Variant T28Y/I51G/G104A gave 28 µM (1 of 3 replicates).
Variant G104Y gave no signal (0 of 3 replicates).
Variant F29Y/N54P/G104A gave 11 µM (1 of 3 replicates).
Variant D31H/G104H/D107A gave 59 nM (3 of 3 replicates).
Variant S55Q/V99S/G104D gave 17 µM (1 of 3 replicates).
Variant G103I/G104Q gave 49 µM (2 of 3 replicates).
Variant F27M/G100V/G104P gave no signal (0 of 3 replicates).
Variant F27T/G104E/Y105Q gave 11 µM (2 of 3 replicates).
Variant Y32R/G104H/F106E gave 40 µM (1 of 3 replicates).
Variant G26V/G104L/D107R gave 240 µM (1 of 3 replicates).
Variant A61F/G104W gave no signal (0 of 3 replicates).
Variant G102D/G104E/Y105C gave 140 µM (1 of 3 replicates).
Variant I51N/G104I/Y105F gave no signal (0 of 3 replicates).
Variant G59P/G104M/Y105N gave no signal (0 of 3 replicates).
Variant N54L/R101C/G104R gave 2.7 µM (1 of 3 replicates).
Variant T28L/V64R/G104A gave no signal (0 of 3 replicates).
Variant M34G/S63W/G104T gave 240 µM (3 of 3 replicates).
Variant F27R/D30E/G104K gave 6.0 µM (1 of 3 replicates).

For reference, 4 entries of the list once more:

changes	apparent Kd	detected
D30E/G102M/G104M	180 nM	3/3
G59P/G104M/Y105N	no signal	0/3
I51N/G104I/Y105F	no signal	0/3
I51G/N54R/G104R	12 µM	1/3

Nonspecific signal, from three strains lacking the peptide, appeared in 21% of pairings of library AAYL51, centred on 34 µM (5% of these signals below 1.8 µM); values are not corrected for it.